The list shows a part of the results, in another mix than the full data. Active and inactive are the calls of the source.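 The calls were made as follows: active = GFP response versus DMSO above a set limit, roughly screen mean plus 3 SD (cut at about 180% in these data); inconclusive = fewer than 70 cells counted for a yeast strain; inactive = the rest.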
experiment: modulators of MEP2-GFP levels in yeast, primary screen, S. cerevisiae, multiplex flow cytometry, MLPCN library (AID 2016);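 also: median GFP fluorescence of the barcode-gated MEP2-GFP cells per well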; details: S. cerevisiae MEP2-GFP strain, 3 h, at 10 µM, hits give high values, 100% = DMSO control level

Compound	GFP response vs DMSO
O=C(O)CNc1ccc([As](=O)(O)O)cc1	inactive: 98.8%
O=[N+]([O-])c1cccc(NC2=NCC(CBr)S2)c1 (centres undefined)	inactive: 111%
O=[N+]([O-])c1ncn(CCn2ncnc2[N+](=O)[O-])n1	inactive: 89.9%
CC(C)(C)C(=O)NC(Sc1ccncn1)C(Cl)(Cl)Cl (centres undefined)	inactive: 102%
O=C(Nc1cc([As](=O)(O)O)ccc1O)c1ccccc1	inactive: 99.7%
CC1CCN(C(=O)Oc2c(Cl)cc(Cl)c3cccnc23)CC1	inactive: 98.7%
CC(C)=N/N=C(\N)N[N+](=O)[O-]	inactive: 101%
CN(C)C(=O)OCCc1n(C)cc[n+]1C	inactive: 101%
CCN(/C(=N/P(=O)(N1CCOCC1)N1CCOCC1)N1CCOCC1)c1ccc(OC)cc1	inactive: 99.8%
Nc1ccc([As](=O)(O)c2ccc(N)cc2)cc1	inactive: 96.8%
C[N+]1=C2C=CC=CC=C2SC12C([N+](=O)[O-])=CC([N+](=O)[O-])=C[C-]2[N+](=O)[O-] (centres undefined)	inactive: 99.9%
Cc1ccc(NP(=O)(Oc2ccccc2)Oc2ccccc2)nc1	inactive: 95.2%
CCc1nc2c(n1)c1c(non1O)c1c2no[n+]1[O-]	inactive: 107%
O=[N+]([O-])c1cc([N+](=O)[O-])c(CCNc2ccccc2)c([N+](=O)[O-])c1	inactive: 98.1%
O=[N+]([O-])c1cccc2n[nH]nc12	inactive: 103%
CC(=O)N1C2C3N(C(C)=O)C1C1N(C(C)=O)C(C(N1C(C)=O)N3C(C)=O)N2C(C)=O	inactive: 103%
COc1ccc(C2=NCC(CBr)S2)cc1 (centres undefined)	inactive: 110%
Oc1ccccc1CNc1ccccn1	inactive: 96.9%
Cc1c2non([O-])c-2c(C)[n+](=O)[n+]1[O-]	inactive: 101%
O=C(NC(Sc1ccncn1)C(Cl)(Cl)Cl)c1ccccc1 (centres undefined)	inactive: 104%
CC(C)CC(=O)NC(Sc1ccc(Cl)cc1)C(Cl)(Cl)Cl (centres undefined)	inactive: 105%
Nc1cc(N)c2nonc2c1[N+](=O)[O-]	inactive: 99.1%
Clc1ccc(Cl)c(NC2=NCC(CBr)S2)c1 (centres undefined)	inactive: 96.9%
CN1CCCC(OC(=O)C(c2ccccc2)c2ccccc2)C1 (centres undefined)	inactive: 102%
COc1ccccc1OP(=O)(Nc1ccc(C)cn1)Oc1ccccc1OC	inactive: 104%
Cc1ccc(OP(=O)(Nc2nccs2)Oc2ccc(C)cc2)cc1	inactive: 99.8%

Compound	GFP response vs DMSO
CN(C(=O)Cc1ccc(Cl)c(Cl)c1)[C@H]1CCCC[C@H]1N1CCCC1	inactive: 101%
Cc1ccc(N/C(=N/P(=O)(N2CCOCC2)N2CCOCC2)N2CCOCC2)cc1	inactive: 100%
NC(=O)c1cc([N+](=O)[O-])cc([N+](=O)[O-])c1N	inactive: 97%
Nc1cccc2ccc([As](=O)(O)O)cc12	inactive: 105%
CCN(N=Nc1nonc1N)c1nonc1N	inactive: 108%
O=[N+]([O-])c1cc([N+](=O)[O-])c(CCN2CCOCC2)c([N+](=O)[O-])c1	inactive: 102%
CCOP(=O)(Nc1ccccc1)OCC	inactive: 106%
Cc1cc(SC(NC(=O)c2ccc(F)cc2)C(Cl)(Cl)Cl)ncn1 (centres undefined)	inactive: 96.9%
Cc1ccc(NP(=O)(Oc2ccccc2F)Oc2ccccc2F)nc1	inactive: 104%
CN(C(=O)Cc1ccc(Cl)c(Cl)c1)[C@H]1CCCC[C@@H]1N1CCCC1	inactive: 99.8%
O=P(Nc1nc2ccc(Cl)cc2s1)(c1ccccc1)c1ccccc1	inactive: 99.6%
O=C(O)c1ccccc1[As](=O)(O)O	inactive: 95.2%
CC(=O)Nc1ccc([As](=O)(O)O)cc1	inactive: 95.2%
Cc1ccccc1OP(=O)(Nc1ccccn1)Oc1ccccc1C	inactive: 104%
CC(NC(=O)COC(=O)C(O)(c1ccccc1)c1ccccc1)c1ccccc1 (centres undefined)	inactive: 100%
CN(C)C(=O)Oc1noc2ccccc12	inactive: 86.3%
O=C(OC1CN2CCC1CC2)c1ccccc1 (centres undefined)	inactive: 108%
CCC(=O)N1C2C3N(C(=O)CC)C1C1N(C(=O)CC)C(C(N1C(=O)CC)N3C(=O)CC)N2C(=O)CC	inactive: 104%
COC(=O)c1cc2c(s1)N=C(c1ccccc1)N(C)P2(=O)N1CCOCC1 (centres undefined)	inactive: 106%
CC(=O)NC(SC(=S)N(CC(C)C)CC(C)C)C(Cl)(Cl)Cl (centres undefined)	inactive: 93%
Cc1ccc(OP(=O)(Nc2ccccn2)Oc2ccc(C)cc2)cc1	inactive: 97.2%
c1ccc(-c2nn[nH]n2)c(-c2nn[nH]n2)c1	inactive: 97.4%
Cc1ccc(NP(=O)(Oc2cccc(C)c2)Oc2cccc(C)c2)nc1	inactive: 104%
CCOC(=O)NC(Sc1ccccc1)C(Cl)(Cl)Cl (centres undefined)	inactive: 98.9%
CCNC(=S)/N=C(\N)N[N+](=O)[O-]	inactive: 98.7%
O=C(NC1CCS(=O)(=O)C1)NP(=S)(Oc1ccccc1)Oc1ccccc1 (centres undefined)	inactive: 99.6%

Compound	GFP response vs DMSO
CC(=O)Nc1ccc([As](=O)(O)O)c(O)c1	inactive: 108%
CC(=O)Nc1ccc(Oc2c([N+](=O)[O-])cc([N+](=O)[O-])cc2[N+](=O)[O-])cc1	inactive: 87.6%
Cc1ccccc1CN(C)C(=O)COC(=O)C(O)(c1ccccc1)c1ccccc1	inactive: 102%
C[C@@H]1C=CCP(=O)(Oc2ccccc2)O1 (some centres undefined)	inactive: 96.1%
C[C@H]1OP(=O)(Oc2ccccc2)C[C@@H]2O[C@@H]21 (some centres undefined)	inactive: 95.5%
CC(=O)c1ccc(N2CC2c2ccncc2)cc1 (centres undefined)	inactive: 97.8%
CC(C)(C)C(=O)NC(Sc1ccccc1)C(Cl)(Cl)Cl (centres undefined)	inactive: 78.7%
O=P1(Nc2nc3ccc(Cl)cc3s2)COc2ccccc2O1 (centres undefined)	inactive: 98.4%
CCOc1ccc(C2=NCC(CBr)S2)cc1 (centres undefined)	inactive: 97.5%
c1nnnn1CCn1cnnn1	inactive: 105%
CC(C)C(=O)NC(Sc1ccccc1)C(Cl)(Cl)Cl (centres undefined)	inactive: 98.5%
O=P(Nc1nccs1)(c1ccccc1)c1ccccc1	inactive: 105%
O=C(OC1CN2CCC1CC2)c1cccc(Cl)c1 (centres undefined)	inactive: 99.9%
Nc1ccc([As](=O)(O)c2ccc([N+](=O)[O-])cc2)cc1	inactive: 101%
C(Cc1nn[nH]n1)Cc1nn[nH]n1	inactive: 97%
O=[As](O)(c1ccccc1)c1ccc(O)cc1	inactive: 92.4%
O=[N+]([O-])c1ccc(O)c(/C=N/Nc2ccc([N+](=O)[O-])cc2[N+](=O)[O-])c1	inactive: 104%
CC(=O)NC(SC(=S)N(C)C)C(Cl)(Cl)Cl (centres undefined)	inactive: 104%
O=[N+]([O-])c1ncn(CCn2cnc([N+](=O)[O-])n2)n1	inactive: 104%
O=P(Nc1nc2ccccc2s1)(c1ccccc1)c1ccccc1	inactive: 98%
C[C@H]1OP(=O)(Oc2ccccc2)[C@H](O)[C@H](O)[C@H]1N=[N+]=[N-] (some centres undefined)	inactive: 99.2%
O=P(Nc1ccccn1)(c1ccc(Br)cc1)c1ccc(Br)cc1	inactive: 102%
CN(C)C1(CNC(=O)c2ccc(Cl)c(S(N)(=O)=O)c2)CCCCC1	inactive: 103%
Nc1cccc([As](=O)(O)c2ccccc2)c1	inactive: 85.6%
O=P1(Nc2ccc(Br)cn2)COc2ccccc2OC1	inactive: 111%
NS(=O)(=O)c1cccc(NC(=O)COC(=O)C(O)(c2ccccc2)c2ccccc2)c1	inactive: 95.5%

Compound	GFP response vs DMSO
Cc1ccc(OCC(=O)OC2CN3CCC2CC3)cc1 (centres undefined)	inactive: 96.1%
O=[As](O)(c1cccs1)c1cccs1	inactive: 103%
O=P1(Nc2ncccn2)COc2ccccc2OC1	inactive: 109%
CN(C)C1(CNC(=O)c2ccc(S(C)(=O)=O)cc2)CCCCC1	inactive: 102%
O=C(/C=C/c1ccccc1)OC1CN2CCC1CC2 (centres undefined)	inactive: 96.5%
Cc1nn(-c2ccccc2)c2c1P(=O)(N1CCOCC1)N(C)C(c1ccccc1)=N2 (centres undefined)	inactive: 102%
CC1CCC(C(C)C)C(OP(=O)(Nc2ccccn2)c2ccccc2)C1 (centres undefined)	inactive: 100%
Cc1ccc(C(=O)OC2CN3CCC2CC3)cc1 (centres undefined)	inactive: 94.1%
CC(C)/C=N\N=C(\N)N[N+](=O)[O-]	inactive: 103%
CN(C(=O)Cc1ccc(Cl)c(Cl)c1)[C@@H]1CCCC[C@H]1N1CCCC1	inactive: 96.7%
O=[As](O)(c1ccccc1Br)c1ccccc1Br	inactive: 104%
CC1(CBr)Cn2c(nc3ccccc3c2=O)S1 (centres undefined)	inactive: 111%
COc1ccccc1CNC(=O)COC(=O)C(O)(c1ccccc1)c1ccccc1	inactive: 92.4%
Clc1n[nH]nc1-c1nn[nH][15n]1	inactive: 97.6%
CC(C)(C)C(=O)NC(Sc1ncccn1)C(Cl)(Cl)Cl (centres undefined)	inactive: 91.7%
O=P1(Nc2ccccn2)COc2ccccc2OC1	inactive: 101%
CCC1=CC2Cc3nc4ccc(Cl)cc4c(N)c3C(C1)C2 (centres undefined)	inactive: 108%
CCOP(=O)(NC(=NC(C)c1ccccc1)NC(C)c1ccccc1)OCC (centres undefined)	inactive: 95.5%
CN(CCCl)Cc1cc(Cl)c(NC2=NCCN2)c(Cl)c1	inactive: 100%
CCOP(=O)(Nc1ccc(C)cn1)OCC	inactive: 107%
COc1cc(C2NCCC3(OCCO3)C2(C)C)cc(OC)c1OC (centres undefined)	inactive: 101%
CCOP(=O)(Nc1cccc2ccccc12)OCC	inactive: 166%
Cc1ccc(NCCc2c([N+](=O)[O-])cc([N+](=O)[O-])cc2[N+](=O)[O-])cc1	inactive: 99.6%
Nc1cccc2c([As](=O)(O)O)cccc12	inactive: 102%
CCCOP(=S)(Nc1nc(N)cc(=O)[nH]1)OCCC	inactive: 100%
O=[As](O)(c1cccc(O)c1)c1cccc(O)c1	inactive: 103%

Reference: PubChem BioAssay AID2016 (NMMLSC, 2009)
